The chains behind the UniProt entries cited, without tags or fusion partners.
UniProt P21728, whole entry: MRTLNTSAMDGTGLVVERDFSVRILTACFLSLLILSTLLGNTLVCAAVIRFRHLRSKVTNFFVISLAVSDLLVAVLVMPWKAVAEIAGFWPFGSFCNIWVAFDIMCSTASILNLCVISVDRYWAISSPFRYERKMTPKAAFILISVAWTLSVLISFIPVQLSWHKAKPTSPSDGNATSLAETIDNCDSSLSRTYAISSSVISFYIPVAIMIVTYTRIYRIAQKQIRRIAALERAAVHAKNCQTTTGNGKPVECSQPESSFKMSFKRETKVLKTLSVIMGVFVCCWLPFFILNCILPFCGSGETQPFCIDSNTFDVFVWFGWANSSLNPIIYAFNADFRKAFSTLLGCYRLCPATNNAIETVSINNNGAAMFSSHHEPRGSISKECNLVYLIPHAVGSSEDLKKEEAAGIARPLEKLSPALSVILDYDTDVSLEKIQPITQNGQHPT

Only a part is listed here, and it is no random draw. Calls of active or inactive are those of the source. Rule as the data show it: active = activation above about 30%; inactive = the rest.
Each molecule was assayed against D(1A) dopamine receptor (Homo sapiens) (UniProt P21728) (assay: Allosteric Agonists of the Human D1 Dopamine Receptor: qHTS). Details: HEK293 T-REx D1 cells, calcium flux, agonist mode; at 2 µM; active compounds read high.
Source text: NIH Chemical Genomics Center [NCGC] NIH Molecular Libraries Probe Centers Network [MLPCN] MLPCN Grant: NS064831-01 Assay Submitter (PI): David Sibley Dopamine receptors (DARs) are involved in the etiology and/or therapy of a number of neuropsychiatric and endocrine disorders. For instance, all receptor-based antiparkinsonian drugs work via stimulating the D1 DAR subtype whereas all FDA-approved antipsychotic agents are antagonists of this receptor. […] There are three different types of allosteric modulators that we are seeking, two of which will stimulate or augment receptor signaling, allosteric agonists and potentiators, while the third, allosteric antagonists, will attenuate receptor signaling. The present primary screening assay measures compound agonism by tracking calcium flux in a […], inducible Hek293 Trex D1 cell line.
Freshly passaged cells are plated in 1536 well black, clear bottom plates at a density of 4000 cells/well in 3 ul of complete media containing 1x tetracycline inducer. After an overnight incubation at […] in 5% CO2, cells are loaded with 2 ul of the no wash Calcium Assay Kit (ABD Bioquest) and incubated at room temperature for 30 to 90 minutes. Agonist read: A 10 cycle (1 second/cycle) baseline measurement is taken and then the FDSS online 1536 pintool delivers 23 nl of compound library (as well as dopamine controls) to the plate. The plate is measured for kinetically at 1 cycle/sec for 180 seconds and is considered to be the agonist portion of the assay (eg, compounds which activate a positive calcium response during this portion are flagged as potential agonists). Following the 180 second read, 1 ul of either an EC20 (positive modulation assay) or EC80 (negative modulation assay) is delivered by an onboard pipette head. Measurements are taken kinetically for an additional 180 seconds.
For CN(C)C1(CNC(=O)c2cccc(C#N)c2)CCCCC1, the activation was inactive: 4.02%.
With c1ccc(CN2CCC(Nc3ccccc3)CC2)cc1 the activation was inactive: -0.473%.
With CCCN1CCC(Nc2cc(OC)cc(OC)c2)CC1 the activation was inactive: 1.35%.
O=C(NCC1(N2CCOCC2)CCCCC1)c1ccccc1 was tested, and the activation was inactive: -1.95%.
CCOC(=O)C(CC)C1=NC(C)(C)Cc2ccccc21.O=[N+]([O-])c1cc([N+](=O)[O-])c(O)c([N+](=O)[O-])c1 (stereo not given) was tested, and the activation was inactive: -0.126%.
O=C(NCC1(N2CCOCC2)CCCCC1)c1ccccc1[N+](=O)[O-] was tested, and the activation was inactive: 1.89%.
With N#Cc1ccc(C(=O)NCC2(N3CCCCC3)CCCCC2)cc1 the activation was inactive: 2.39%.
With O=C(NCC1(N2CCOCC2)CCCCC1)c1ccc([N+](=O)[O-])cc1 the activation was inactive: -2.2%.
For CC(C)(C)OC(=O)N1CCC(N(C(=O)c2ccccc2)c2ccc(Cl)cc2)CC1, the activation was inactive: 3.48%.
With CCc1cc(C(=O)NCC2(N3CCCCC3)CCCCC2)sc1C the activation was inactive: 11.2%.
O=C(OC1CN2CCC1CC2)C1c2ccccc2C=Cc2ccccc21 (stereo not given) was tested, and the activation was inactive: 8.31%.
For O=C(O)c1cccc(Nc2c([N+](=O)[O-])cc([N+](=O)[O-])cc2[N+](=O)[O-])c1, the activation was inactive: 1.13%.
In the case of CCOC(=O)N1CCC(Nc2ccc(C)cc2)CC1, the activation is reported as inactive: 1.06%.
In the case of N/C(=N\O)c1c(N)no[n+]1[O-], the activation is reported as inactive: 0.538%.
For COc1ccc(C(=O)NCC2(N3CCOCC3)CCCCC2)cc1OC, the activation was inactive: 0.417%.
For O=C(NCC1(N2CCOCC2)CCCCC1)c1cc(Br)ccc1Cl, the activation was inactive: 0.42%.
With CN1CCC(Nc2ccc(Cl)cc2)CC1 the activation was inactive: 4.48%.
CCCOc1ccc(C)cc1CN(CCCl)CCCl was tested, and the activation was inactive: 2.61%.
For COc1cccc(C(=O)N(c2cc(C)cc(C)c2)C2CCN(C(=O)OC(C)(C)C)CC2)c1, the activation was inactive: 1.28%.
COc1cc(C(=O)NCC2(N3CCOCC3)CCCCC2)cc(OC)c1OC was tested, and the activation was inactive: -0.558%.
With COc1cc(OC)cc(C(=O)NCC2(N3CCOCC3)CCCCC2)c1 the activation was inactive: 2.43%.
With CCC(CO)(C(=O)OC1CN2CCC1CC2)c1ccccc1 (stereo not given) the activation was inactive: 2.73%.
With CC(C)(C)OC(=O)N1CCC(Nc2ccccc2)CC1 the activation was inactive: 2.35%.
With O=C(O)C1(Nc2ccccc2)CCN(Cc2ccccc2)CC1 the activation was inactive: 2.1%.
With CCCOc1ccc(C(=O)NCC2(N(C)C)CCCCC2)cc1 the activation was inactive: 3.82%.
For CCOc1ncccc1C(=O)NCC1(N2CCOCC2)CCCCC1, the activation was inactive: 2.42%.
In the case of CN1CCC(Nc2ccc(F)c(Cl)c2)CC1, the activation is reported as inactive: 8.95%.
For Cc1ccccc1C(=O)NCC1(N(C)C)CCCCC1, the activation was inactive: -0.577%.
With O=C(NCC1(N2CCCCC2)CCCCC1)c1ccco1 the activation was inactive: 0.975%.
CC(C)(C)c1ccc(C(=O)NCC2(N3CCOCC3)CCCCC2)cc1 was tested, and the activation was inactive: -1.6%.
CN(C)c1ccc(C(=O)NCC2(N3CCCCC3)CCCCC2)cc1 was tested, and the activation was inactive: 10.6%.
For CCN1CCC(Nc2cccc(F)c2)CC1, the activation was inactive: 2.34%.
Cc1ccc(C(=O)NCC2(N3CCCCC3)CCCCC2)o1 was tested, and the activation was inactive: 0.284%.
Fc1ccccc1NC1CCN(Cc2ccccc2)CC1 was tested, and the activation was inactive: 1.09%.
In the case of CN(C)C1(CNC(=O)c2ccc(C(C)(C)C)cc2)CCCCC1, the activation is reported as inactive: 6.66%.
COc1cc(OC)cc(C(=O)NCC2(N3CCCCC3)CCCCC2)c1 was tested, and the activation was inactive: 1.26%.
In the case of CCOC(=O)N1CCC(Nc2cccc(C)c2)CC1, the activation is reported as inactive: 3.81%.
With COc1cc(C(=O)NCC2(N(C)C)CCCCC2)ccc1OC(F)F the activation was inactive: 3.56%.
With Cc1ccc(OCC(C)C)c(CN(CCCl)CCCl)c1 the activation was inactive: 4.32%.
COc1ccccc1C(=O)NCC1(N2CCOCC2)CCCCC1 was tested, and the activation was inactive: -0.938%.
With CCCCOc1ccc(C(=O)NCC2(N3CCOCC3)CCCCC2)cc1 the activation was inactive: 4.54%.
With O=C(NCC1(N2CCCCC2)CCCCC1)c1ccc(F)cc1 the activation was inactive: -1.43%.
In the case of CCOC(=O)N1CCC(Nc2ccc(F)cc2)CC1, the activation is reported as inactive: 4.27%.
For COc1ccc(NC2CCN(CCc3ccccc3)CC2)c(OC)c1, the activation was inactive: 3.1%.
O=C(NCC1(N2CCOCC2)CCCCC1)c1ccc(Cl)cc1 was tested, and the activation was inactive: -1.42%.
In the case of CCOc1ccc(C)cc1CN(CCCl)CCCl, the activation is reported as inactive: -0.723%.
For N#CC1(Nc2ccccc2)CCN(Cc2ccccc2)CC1, the activation was inactive: 2.42%.
O=C(NCC1(N2CCCCC2)CCCCC1)c1ccc(Cl)s1 was tested, and the activation was inactive: 2.29%.
O=C(OC1CN2CCC1CC2)C1c2ccccc2Oc2ccccc21 (stereo not given) was tested, and the activation was inactive: 10.2%.
For COc1ccc(Cl)cc1C(=O)NCC1(N2CCOCC2)CCCCC1, the activation was inactive: 2.91%.
In the case of CCOC(=O)N1CCC(Nc2ccc(OC)cc2)CC1, the activation is reported as inactive: 2.61%.
In the case of O=C(NCC1(N2CCCCC2)CCCCC1)c1ccc(Cl)nc1, the activation is reported as inactive: 3.27%.
With Cc1cc(C)cc(N(C(=O)c2ccccc2)C2CCN(C(=O)OC(C)(C)C)CC2)c1 the activation was inactive: 2.95%.
With O=C(NCC1(N2CCOCC2)CCCCC1)c1cc2ccccc2o1 the activation was inactive: 0.955%.
For CSc1ccccc1C(=O)NCC1(N2CCCCC2)CCCCC1, the activation was inactive: -0.198%.
In the case of COc1ccc(C(=O)NCC2(N3CCCCC3)CCCCC2)cc1, the activation is reported as inactive: -0.179%.
For COc1ccc(C(=O)NCC2(N3CCCCC3)CCCCC2)c(OC)c1OC, the activation was inactive: -1.58%.
In the case of CC(C)(C)OC(=O)N1CCC(N(C(=O)c2ccccc2)c2ccc(F)cc2)CC1, the activation is reported as inactive: 0.372%.
For O=C(NCC1(N2CCCCC2)CCCCC1)c1ccc(=O)[nH]c1, the activation was inactive: 2.43%.
With O=C(NCC1(N2CCCCC2)CCCCC1)c1cccs1 the activation was inactive: -0.453%.
In the case of CCCCOc1ccccc1C(=O)NCC1(N2CCOCC2)CCCCC1, the activation is reported as inactive: 0.308%.
In the case of O=C(NCC1(N2CCOCC2)CCCCC1)c1ccccc1Br, the activation is reported as inactive: -0.804%.
In the case of CCCOc1ccc(C(=O)NCC2(N(C)C)CCCCC2)cc1OC, the activation is reported as inactive: 7.12%.
With O=C(OC1CN2CCC1CC2)c1ccc([N+](=O)[O-])cc1 (stereo not given) the activation was inactive: 2.66%.
For O=C(NCC1(N2CCCCC2)CCCCC1)c1cncc(Br)c1, the activation was inactive: 1e-08%.
Also: 0% is about no effect.
